Values of other authors as cited in patent publication US20230265432A1, “METHODS AND COMPOSITIONS FOR TREATING ACUTE MYELOID LEUKEMIA” (Sanford Burnham Prebys Medical Discovery Institute, priority 2021, published 2023).

The chains behind the UniProt entries cited, without tags or fusion partners.
UniProt Q96GD4, whole entry: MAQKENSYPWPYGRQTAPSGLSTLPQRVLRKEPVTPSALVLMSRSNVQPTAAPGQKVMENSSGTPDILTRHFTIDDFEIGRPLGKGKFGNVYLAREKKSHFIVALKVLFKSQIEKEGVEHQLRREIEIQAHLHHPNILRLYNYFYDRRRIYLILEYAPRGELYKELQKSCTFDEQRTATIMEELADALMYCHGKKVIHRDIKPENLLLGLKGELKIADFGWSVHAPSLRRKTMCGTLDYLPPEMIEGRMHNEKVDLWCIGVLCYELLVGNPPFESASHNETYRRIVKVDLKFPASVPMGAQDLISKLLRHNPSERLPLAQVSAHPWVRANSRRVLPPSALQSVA

Assays:
[1] = biological target: Aurora B (Homo sapiens, UniProt Q96GD4); conditions: cited from earlier work
[2] = biological target: T1, G9a (Homo sapiens, UniProt Q96KQ7); conditions: cited from earlier work
T1 sequence (Q96KQ7 1-1210): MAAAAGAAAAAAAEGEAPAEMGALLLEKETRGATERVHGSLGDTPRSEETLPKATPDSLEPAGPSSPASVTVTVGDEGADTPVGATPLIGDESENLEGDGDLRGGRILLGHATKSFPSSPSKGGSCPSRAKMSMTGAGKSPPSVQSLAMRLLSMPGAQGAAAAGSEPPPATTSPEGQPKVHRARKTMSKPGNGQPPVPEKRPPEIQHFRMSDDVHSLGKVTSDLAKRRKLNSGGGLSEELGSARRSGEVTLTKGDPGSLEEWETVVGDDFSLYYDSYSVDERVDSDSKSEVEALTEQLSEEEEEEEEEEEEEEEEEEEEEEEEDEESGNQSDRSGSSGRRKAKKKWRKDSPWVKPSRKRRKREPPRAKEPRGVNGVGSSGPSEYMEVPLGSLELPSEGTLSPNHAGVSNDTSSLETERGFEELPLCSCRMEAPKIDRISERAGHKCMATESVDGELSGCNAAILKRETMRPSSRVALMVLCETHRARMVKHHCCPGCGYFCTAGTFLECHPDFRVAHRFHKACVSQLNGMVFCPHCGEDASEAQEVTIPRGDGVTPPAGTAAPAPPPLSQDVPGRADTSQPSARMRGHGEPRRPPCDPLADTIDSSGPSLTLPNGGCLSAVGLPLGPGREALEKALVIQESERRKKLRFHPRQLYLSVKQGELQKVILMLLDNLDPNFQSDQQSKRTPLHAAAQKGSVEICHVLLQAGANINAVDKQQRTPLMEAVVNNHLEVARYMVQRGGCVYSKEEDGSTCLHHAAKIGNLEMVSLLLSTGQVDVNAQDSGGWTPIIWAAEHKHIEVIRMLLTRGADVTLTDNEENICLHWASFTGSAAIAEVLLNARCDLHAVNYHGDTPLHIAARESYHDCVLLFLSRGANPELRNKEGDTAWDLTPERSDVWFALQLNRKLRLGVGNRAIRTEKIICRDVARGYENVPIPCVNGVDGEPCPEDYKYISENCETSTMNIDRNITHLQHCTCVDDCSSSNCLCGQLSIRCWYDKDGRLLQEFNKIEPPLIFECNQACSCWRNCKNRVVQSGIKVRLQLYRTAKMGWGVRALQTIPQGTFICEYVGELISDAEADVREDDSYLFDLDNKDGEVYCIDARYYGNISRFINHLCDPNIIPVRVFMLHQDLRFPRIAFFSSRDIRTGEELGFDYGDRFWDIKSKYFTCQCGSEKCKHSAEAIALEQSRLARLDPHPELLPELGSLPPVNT

Structure (SMILES) | does not inhibit at doses up to [1] | IC50 [2] [nM] | fold selective for G9a over SET7/9 and SET8 [2]
Cc1cc(Nc2nn(-c3ccccc3)c(=O)c3ccccc23)n[nH]1 | inhibit Aurora B kinase at doses up to 100 μM; inhibits the |  | 
COc1cc2c(NC3CCN(C)CC3)nc(N3CCCN(C)CC3)nc2cc1OCCCN(C)C [UNC0224] |  | 15 | > 1,000 fold
